Assay results taken from publication PMC7997635 (Journal of medicinal chemistry, 2021).

Columns and labels:
Format in all cases: cell-based, Plasmodium falciparum
P. falciparum 3D7 = test: SYBR Green parasite growth inhibition assay, 72 h
P. falciparum Dd2 = test: SYBR Green parasite growth inhibition assay, 72 h
Pf Dd2-GC03 = test: PfCRT gene edited isogenic line Dd2-GC03
[1] = system: Hz formation in NF54 parasites; test: Cellular heme fractionation assay

Cc1ccccc1-n1nnnc1C(c1cncnc1)N(Cc1cccc(C(F)(F)F)c1)C1CC1 (centres unmarked) [Compound 10, N-(Pyrimidin-5-yl(1-(o-tolyl)-1H-tetrazol-5-yl)methyl)-N-(3-(trifluoromethyl)benzyl)cyclopropanamine]
Fold Diff, 3D7 relative to 3D7 (P. falciparum 3D7): 1.0
Fold Diff in EC50, Dd2 relative to 3D7 (P. falciparum Dd2): 3–5 fold
Fold Diff Dd2-GC03 relative to Dd2-GC03 (Pf Dd2-GC03): 1.0
fold decrease in Hz heme Fe ([1]; at 3× EC50 vs no-drug control): 2 fold
levels of free heme relative to CQ ([1]; fold higher than CQ across the dose response range): 3 – 4 fold
